Measured affinities in a library of Ab-14 heavy chain variants

The measurements come from Li et al. 2023 (doi:10.1038/s41467-023-39022-2) through the FLAb antibody collection.

Target: peptide PDVDLGDISGINAS, taken from heptad repeat 2 (HR2) of SARS-CoV-2 spike.

Parent: Ab-14, a human scFv built as VH, the linker GGGGSGGGGSGGGGS, VL. Only the CDRs of the heavy chain vary.
VH: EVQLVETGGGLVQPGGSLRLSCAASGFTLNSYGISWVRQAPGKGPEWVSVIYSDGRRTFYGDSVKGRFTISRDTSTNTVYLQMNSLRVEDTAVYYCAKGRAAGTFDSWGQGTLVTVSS
VL: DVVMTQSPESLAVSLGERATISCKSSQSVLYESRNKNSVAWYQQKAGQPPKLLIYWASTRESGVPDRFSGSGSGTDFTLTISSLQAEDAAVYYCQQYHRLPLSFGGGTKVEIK

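Phage display of a naive human antibody library on the peptide gave the parent. These sequences belong to a second round, designed from the earlier measurements on random variants of the parent. Several design methods are mixed in this list. AlphaSeq pools MATa yeast showing the antibodies with MATalpha yeast showing the peptide. The frequency of each diploid, read from paired DNA barcodes, reflects how well the two displayed proteins bind. The ratio of observed to expected reads was calibrated, replicate by replicate, on BCL2-family standards whose Kd was known from biolayer interferometry. There are six technical replicates.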

Variants are written as CDR1, CDR2 and CDR3 of the heavy chain (limits as in the source). Parent: GFTLNSYGIS, VIYSDGRRTFYGDSVK, GRAAGTFDS.
Each Kd is an estimate from the mating assay, the geometric mean of the replicates in which the pair was seen; lower is stronger.
"not detected" marks a missing value. The strain was present, yet no cells mated with the target were sequenced in any replicate, which points to weak or no binding.
Values of this round are not directly comparable with the first-round values of the same sequences.

apparent Kd | detected | control signals | CDR-H1 | CDR-H2 | CDR-H3
500 pM | 6 of 6 | 0 of 18 | GFELNSYGIS | VIYADGRRTFYGDSVK | GRAAGTFDV
6.5 nM | 6 of 6 | 0 of 18 | GFNLNSYGIS | VIYSDGRRTFYGDSVK | GRQAGTFDT
2.9 nM | 3 of 6 | 0 of 18 | GFELNSYGIS | VIYSDGRRTFYQDSVK | GRQAGTFDS
970 pM | 6 of 6 | 0 of 18 | GFSLNSYGIS | VIYSDGRRTFYADSVK | GTAAGTFDS
not detected | 0 of 6 | 1 of 18 | GFTLNSYGIS | VIYSDGRRVFYGDSVK | GRLAGYFDT
290 pM | 6 of 6 | 0 of 18 | GFDLNEYGIS | VIYADGMRTAYTDSVK | GHNAGTFDV
490 pM | 6 of 6 | 0 of 18 | GFDLNEYGIS | VIYADGMRTAYADSVK | GKNAGTFDM
660 pM | 6 of 6 | 0 of 18 | GFDLDEYGIS | VIYADGMRTAYSDNVK | GEVAGTFDL
6.2 nM | 6 of 6 | 2 of 18 | GFDLNSYGIS | VIYSDGRRTFYGDSVK | GREAGSFDT
270 pM | 6 of 6 | 0 of 18 | GFDLNEYGIS | VIYADGMRTAYADDVK | GNVAGTFDS
1.1 nM | 6 of 6 | 0 of 18 | GFSLNEYGIS | VIYSDGRRTFYGDRVK | GQAAGTFDS
300 pM | 6 of 6 | 0 of 18 | GFDLNEYGIS | VIYADGMRTAYADDVK | GNTAGTFDI
58 nM | 6 of 6 | 0 of 18 | GFTLNEYGIS | VIYSDGRRTFYSDSVK | GRFAGTFDS
11 nM | 6 of 6 | 0 of 18 | GFELNSYGIS | VIYSDGRRTFYIDSVK | GKAAGTFDA
700 pM | 6 of 6 | 0 of 18 | GFDLNEYGIS | VIYADGQRTAYADNVK | GNVAGTFDT
7.1 nM | 5 of 6 | 0 of 18 | GFELNSYGIS | VIYSDGRRTFYGDSVK | GRTAGTFDE
170 nM | 4 of 6 | 1 of 18 | GDNINEYGIS | VIYADGLRRQYAENVK | GYLAGTLDE
not detected | 0 of 6 | 0 of 18 | DFDLNSYGIS | VIYSDGRRTFYGDSVK | CRAAGTSDS
10 nM | 3 of 6 | 0 of 18 | GFDLNSYGIS | VIYSDGRRLFYGDDVK | GREAGTFDS
1.0 nM | 1 of 6 | 0 of 18 | GFTLNSYGIS | VIYSDGRRTFYSDSVK | GREAGTFDM
380 pM | 6 of 6 | 0 of 18 | GFNLDEYGIS | VIYADGRRTFYSDNVK | GEAAGTFDI
5.3 nM | 6 of 6 | 0 of 18 | GFSLNDYGIS | VIYSDGRRTYYGDSVK | GRAAGTFDS
3.8 nM | 6 of 6 | 0 of 18 | GFTLNSYGIS | VIYSDGRRTFYSDDVK | GEAAGTFDT
not detected | 0 of 6 | 0 of 18 | GFDLDEQGIS | VIYADGVRCSYADKVK | GANSGVIDV
350 pM | 6 of 6 | 0 of 18 | GFDLDEYGIS | VIYADGQRTAYADNVK | GEVAGTFDI
not detected | 0 of 6 | 0 of 18 | GFTLNEYGIS | VIYSDGRRDFYGDSVK | GRAAGTFPS
not detected | 0 of 6 | 0 of 18 | GFHLNSYGIS | VIYSDGRRTFYIDSVK | GRLAGTFDS
not detected | 0 of 6 | 0 of 18 | GFTLNSYGIS | VIYSDGRRTFYDDSVK | GQVAGMFDS
660 pM | 6 of 6 | 0 of 18 | GFDLNEYGIS | VIYADGRRTAYIDSVK | GHLAGTFDE
59 nM | 2 of 6 | 0 of 18 | GFTLNSYGIS | VIYSDGIRTFYGDSVK | GRAAGTFDS
3.4 nM | 6 of 6 | 0 of 18 | GFQLNEYGIS | VIYSDGRRTFYGDSVK | GEAAGTFDT
260 nM | 2 of 6 | 0 of 18 | GFTLNSYGIS | VIYSDGRRTFYADSVK | GRAAGTFSS
320 pM | 6 of 6 | 0 of 18 | GFDLNEYGIS | VIYADGRRSFYADSVK | GQLAGTFDL
not detected | 0 of 6 | 0 of 18 | GFDLDEYGVS | VIYADGRRKKYADAVK | GTHGGTILA
23 nM | 1 of 6 | 0 of 18 | GFKLNSYGIS | VIYSDGKRTFYGDSVK | GRAAGTFDQ
290 pM | 6 of 6 | 0 of 18 | GFDLNEYGIS | VIYADGVRTYYADSVK | GNTAGTFDV
2.8 nM | 6 of 6 | 0 of 18 | GFTLNSYGIS | VIYSDGRRTFYADDVK | GEAAGTFDN
1.9 nM | 6 of 6 | 0 of 18 | GFSLNSYGIS | VIYSDGRRTFYGDDVK | GVEAGTFDS
43 nM | 3 of 6 | 1 of 18 | GFTLNSYGIS | VIYSDGRRTFYGDSVK | GQAAGTFDM
not detected | 0 of 6 | 0 of 18 | GFDLNEYGVS | VIYADGFRTSYTDSVK | GAVVDLSMA
not detected | 0 of 6 | 0 of 18 | GFWLDEYGIS | VIYADGKRVAYINSVK | GQFTYFNDV
610 pM | 6 of 6 | 0 of 18 | GFDINEYGIS | VIYADGRRTAYADSVK | GNAAGTFDV
not detected | 0 of 6 | 0 of 18 | GFDLNSYGIS | VQYSDGRRTFYGDSVK | GRAAGWFNS
230 pM | 6 of 6 | 0 of 18 | GFDLNDYGIS | VIYADGRRTAYIDSVK | GEVAGTFDN
5.2 nM | 6 of 6 | 0 of 18 | GFTLGEYGIS | VIYSDGRRTFYTDSVK | GRFAGTFDS
450 pM | 6 of 6 | 1 of 18 | GFDLNEYGIS | VIYADGMRTAYSDSVK | GNVAGTFDQ
710 pM | 6 of 6 | 1 of 18 | GFDLDEYGIS | VIYADGMRTAYADDVK | GNNAGTFDL
not detected | 0 of 6 | 0 of 18 | GFNLEDYGIS | VIYADGSRSSYIESVK | GHWGADFIL
3.0 nM | 5 of 6 | 0 of 18 | GFDLNEYGIS | VIYADGRRTFYADSVK | GTVAGTFIQ
490 pM | 6 of 6 | 0 of 18 | GFDLNEYGIS | VIYADGMRTAYADDVK | GNEAGTFDI
770 pM | 6 of 6 | 0 of 18 | GFDLNEYGIS | VIYADGKRTAYADDVK | GNVAGTFDQ
not detected | 0 of 6 | 0 of 18 | GESLNEYGIS | VIYSDGRRTFYGDSVK | GRNAGTFDS
530 pM | 6 of 6 | 0 of 18 | GFNLDEYGIS | VIYADGKRTFYSDNVK | GEAAGTFDI
480 nM | 2 of 6 | 0 of 18 | GFTLNSYGIS | VIYSDGRRTFYNDSVK | GREGGTWDS
not detected | 0 of 6 | 0 of 18 | GFWLLSYGIS | VIYSDGRRTFYGDSVK | DIAAGTKDY
2.1 nM | 6 of 6 | 0 of 18 | GFELNEYGIS | VIYSDGRRTFMGDSVK | GRTAGTFDT
240 pM | 6 of 6 | 0 of 18 | GFDLNEYGIS | VIYADGLRTAYVDSVK | GENAGTFDV
43 nM | 6 of 6 | 1 of 18 | GFTLESYGIS | VIYADGRRTFYGDSVK | GRAAATFDS
890 pM | 6 of 6 | 0 of 18 | GFTLNSYGIS | VIYSDGRRTFYADQVK | GKEAGTFDS
820 pM | 6 of 6 | 0 of 18 | GFDLNEYGIS | VIYADGMRSYYADSVK | GNNAGTFDV
640 pM | 6 of 6 | 0 of 18 | GFDLNEYGIS | VIYADGFRTFYTDSVK | GEFAGTFDV
not detected | 0 of 6 | 0 of 18 | GLTLDSYGIS | VIYSDGRYTFYGDSVK | GRAAGTALS
4.4 nM | 6 of 6 | 0 of 18 | GFTLNMYGIS | VIYSDGRRTAYGDSVK | GFAAGTFDS
360 pM | 6 of 6 | 1 of 18 | GFDLNEYGIS | VIYADGKRTFYSDSVK | GTNAGTFDM
16 nM | 5 of 6 | 2 of 18 | GFTLNSYGIS | VIYSDGRRTFYSDSVK | GQEAGSFDS
430 pM | 6 of 6 | 0 of 18 | GFDLNEYGIS | VIYADGRRTAYSDSVK | GEQAGTFDV
85 nM | 1 of 6 | 0 of 18 | GFTLNSYGIS | VIYSDGRRTFYSDSVK | DRAAGTFDS
not detected | 0 of 6 | 0 of 18 | GFSLDEYGIS | VIYADGTRTFYTDNVK | GLIAMVCGL
38 nM | 6 of 6 | 0 of 18 | GFTLNSYGIS | VIYSDGRRTFYGDSVK | GRTGGTFDS
1.2 nM | 6 of 6 | 0 of 18 | GFDLNEYGIS | VIYADGVRQAYADDVK | GNQAGTFDV
not detected | 0 of 6 | 0 of 18 | GFQLNTYGIS | VIYSDGRRTFYVDSVK | GQAAGTFDS
440 nM | 3 of 6 | 0 of 18 | GFTLNSYGIS | VIYADGRRTFYGDSVK | GRAEGTFDS

For reference, 7 entries of the list once more:

| CDR-H1 | CDR-H2 | CDR-H3 | apparent Kd | detected | control signals |
|---|---|---|---|---|---|
| GFWLLSYGIS | VIYSDGRRTFYGDSVK | DIAAGTKDY | not detected | 0 of 6 | 0 of 18 |
| GFDLNEYGIS | VIYADGFRTFYTDSVK | GEFAGTFDV | 640 pM | 6 of 6 | 0 of 18 |
| GLTLDSYGIS | VIYSDGRYTFYGDSVK | GRAAGTALS | not detected | 0 of 6 | 0 of 18 |
| GFNLDEYGIS | VIYADGRRTFYSDNVK | GEAAGTFDI | 380 pM | 6 of 6 | 0 of 18 |
| GFDLNEYGIS | VIYADGVRTYYADSVK | GNTAGTFDV | 290 pM | 6 of 6 | 0 of 18 |
| GFDLNEYGIS | VIYADGMRTAYSDSVK | GNVAGTFDQ | 450 pM | 6 of 6 | 1 of 18 |
| GFQLNEYGIS | VIYSDGRRTFYGDSVK | GEAAGTFDT | 3.4 nM | 6 of 6 | 0 of 18 |

Three control strains display no target. For all heavy chain designs, 1% of the pairings with them gave a signal, with a median of 120 nM and one signal in twenty below 7.0 nM, so weak values seen in few replicates may be background. The control count says in how many pairings with the empty strains this scFv gave a signal.
In the paper, a design with two or fewer of six values counts as a poor binder.